{"source": "patent US8673929B2", "about": "“4,6-di- and 2,4,6-trisubstituted quinazoline derivatives and pharmaceutical compositions useful for treating viral infections” (priority 2006, dated 2014)", "system": "Huh-7 HCV replicon cells", "assay": "CC50 assay in the anti-HCV replicon assay (CellTiter-Glo)", "format": "cell-based, human", "conditions": "3 days incubation, CellTiter-Glo luminescence", "procedure": "The anti HCV activity of the quinazoline derivatives of this invention was tested in a human hepatoma Huh-7 cell line harbouring a HCV replicon. The assay comprised the following steps:\nStep 1: compound preparation and serial dilution • 1. for water soluble quinazoline derivatives, a volume of 500 μL of solution in cell media (DMEM, 10% FBS, P/S, L-Glutamine) was prepared with a concentration being twice the concentration of the starting final serial dilution concentration. A volume of 150 μL of the solution was added to the pre-specified wells in column 1 of a 96-well cell culture plate (PerkinElmer, white plate, cat. #6005181, for EC50 assay; black plate, cat. #6005182 for CC50 assay). The rest of the plate, columns 2-12, was filled with 100 μL of cell media. […]\nStep 3: detection: • a) for the EC50 assay, the media in a 96-well cell culture plate was aspirated with a Biotek EL405 plate-washer. […] The plate was incubated for 30 minutes at room temperature before the luminescence signal was measured with a TopCount plate-reader. • b) for the CC50 assay, a volume of 100 μL of pre-mixed CellTiter-Glo (Promega, cat.# G7572) solution is added directly to the cell culture in each well of the plate and the luminescence signal is measured with a TopCount plate-reader after 10 minutes of incubation at room temperature. […]"}
{"substance": "4-(4-(2-methmethoxy)-quinazolin-6-yl)-N-methyl-benzamide [Example 246]", "values": [{"measurement": "CC50", "value": "> 20", "unit": "µM"}]}
